Measurements as given in patent US11305012B2, “Binding molecules specific for HER3 and uses thereof” (MedImmune, LLC, priority 2013, dated 2022).
Entries after “also recorded” stand apart in the source; their conditions may differ.

Assays:
[1] = system: HER3, pHER3 and pAKT in SW620, SW480, Colo205, LOVO, HCT15, Caco-2; assay: HRG-stimulated HER3 signaling in CRC tumor cell lines (Western); format: cell-based, human; settings: antibodies 10 μg/mL, gefitinib 5 μM, HRG 50 ng/mL
Procedure: In the presence of the HER3 ligand heregulin (HRG), HER3 heterodimerizes with EGFR or HER2, which leads to phosphorylation of HER3 and transmission of an oncogenic signal via phosphoinositide 3 kinase (PI3K) and protein kinase B (PKB), also known as AKT. A collection of CRC models were characterized to determine which receptor tyrosine kinase, EGFR or HER2, is the major driver of signaling through HER3. […] Briefly, cells were seeded into 24-well plates at a density of 1.5×10^5 cells per well. […] After 5-6 hours of incubation at 37° C., HRG was added at 50 ng/mL into one set of cells for 15 minutes at 37° C. All cells were then washed with cold PBS and lysed by the addition of 60 μL of 2×SDS (sodium dodecyl sulfate) sample buffer (Invitrogen). Lysates were transferred to 1.5 mL tubes and boiled for 5 minutes followed by chilling on ice for 2 minutes. Equal volumes (20 μL) of protein samples were resolved in NuPAGE Novex Bis-Tris gels (Invitrogen) before transfer to polyvinylidene fluoride (PVDF) membranes (Invitrogen). […] After washing, protein bands were detected on X-ray film by using SuperSignal West Pico Chemiluminescent Substrate (Pierce/Thermo Scientific).

[2] = system: human Detroit562 Head and Neck xenograft; assay: Subcutaneous human Detroit562 head and neck xenograft model; format: in vivo, mouse; settings: Detroit562, 2C2 3 mg/kg, cetuximab 10 mg/kg
Description: (§1) Xenografts were established by subcutaneously injecting 5×10^6 cells per mouse into the right flanks of 4- to 6-week-old athymic nu/nu mice. Tumors were allowed to grow up to 200 mm^3 before randomization for efficacy studies. […] Caliper measurements were used to calculate tumor volumes using the formula: tumor volume=π÷6(length×width×width) • for tumors grown in mice.

[3] = system: CAL27 head and neck tumor model; assay: Subcutaneous human CAL27 head and neck xenograft model; format: in vivo, mouse; settings: CAL27, 30 mg/kg twice per week
Description: as §1

[4] = system: human HT-29 colorectal xenograft; assay: Subcutaneous human HT-29 CRC xenograft model; format: in vivo, mouse; settings: HT-29, 10 mg/kg alone
Description: as §1

[5] = system: human HCT-116 colorectal xenograft; assay: Subcutaneous human HCT-116 CRC xenograft model; format: in vivo, mouse; settings: HCT-116, 10 mg/kg
Description: as §1

[6] = system: human LOVO colorectal xenograft; assay: Subcutaneous human LOVO CRC xenograft model; format: in vivo, mouse; settings: 10 mg/kg
Procedure: as §1, with “Human LOVO colorectal carcinoma cells (ATCC No. CCL-229) were maintained at 37° C. in a 5% CO2 incubator in HAM'S F12K medium containing 4.5 g/L glucose, L-glutamine, sodium pyruvate and 10% fetal bovine serum. Xenografts” for “Xenografts”

[7] = system: KNS-62 non-small cell lung cancer (NSCLC) xenografts; assay: Human KNS-62 bronchial squamous cell carcinoma xenograft model; format: in vivo, mouse; settings: KNS-62, 10 mg/kg (each)
Procedure: Protocols similar to those described in section 5.1 above were carried out with KNS-62 cells as a xenograph model of bronchial squamous cell carcinoma (see, e.g., Takaki, T., J. Cancer Research and Clinical Oncology, 1980, 96(1): 27-33).
(§2) Treatment with antibodies were administered starting at about day 8 post-implantation of KNS-62 cells. […] Caliper measurements were used to calculate tumor volumes as described in section 5.1 above. Similarly, antitumor effects are expressed as percent delta tumor growth inhibition (TGI) as described in section 5.1 above.

HARA-B NSCLC xenografts = assay: Human HARA-B squamous cell carcinoma xenograft model with cetuximab; format: in vivo, mouse; settings: 10 mg/kg (each)
Procedure: Protocols similar to those described in section 5.1 above were carried out with HARA-B cells as a xenograph model of squamous NSCLC.
as §2, with “approximately” for “about”, “12” for “8”, “HARA-B” for “KNS-62”

OE-21 xenografts = assay: Human OE-21 head and neck cancer xenograft model; format: in vivo, mouse; settings: OE-21, 10 mg/kg (each)
Procedure: Protocols similar to those described in section 5.1 above were carried out with OE-21 cells as a xenograph model of head and neck cancer.
as §2, with “approximately” for “about”, “13” for “8”, “OE-21” for “KNS-62”

BT-474 and SkBR3 = assay: PBMC-enabled ADCC assay; format: cell-based, human; settings: BT-474 and SkBR3, PBMC; data not shown
Procedure: ADCC is one recognized way through which a monoclonal antibody can confer its anti-tumor efficacy in vivo. […] 2C2-YTE was tested in CDC assays using human serum as a source of complement.

BT-474 xenografts = assay: Orthotopic human BT-474 breast cancer xenograft model; format: in vivo, mouse; settings: BT-474 orthotopic, antibodies 30 mg/kg, lapatinib 100 mg/kg
Procedure: (§3) Orthotopic xenografts were established by injecting 1×10^7 cells per mouse (suspended in 50% matrigel) into the mammary fat pad on the right flank of 4 to 6-week-old athymic nu/nu mice. Estrogen pellets (0.36 mg) were placed under the skin of the left flank 1-2 days before cell injection. Tumors were allowed to grow up to 200 mm^3 before randomization for efficacy studies. […] Lapatinib was administered by oral gavaging at 100 mg per kilogram body weight. Caliper measurements were used to calculate tumor volumes using the formula: tumor volume=π÷6(length×width×width) • for tumors grown in mice.

[8] = system: human MCF-7 breast cancer xenograft; assay: Orthotopic human MCF-7 breast cancer xenograft model; format: in vivo, mouse; settings: MCF-7 orthotopic, 10 mg/kg
Procedure: as §3, with “Human MCF-7 breast cancer cells were maintained at 37° C. in a 5% CO2 incubator in Optimem medium containing glutamax, 2.4/L sodium bicarbonate, Hepes and 5% fetal bovine serum. Orthotopic” for “Orthotopic”, “5×10^6” for “1×10^7”, “studies. 2C2, 2C2-YTE and trastuzumab monoclonal antibodies were administered intraperitoneally.” for “studies.”, “Paclitaxel” for “Lapatinib”, “intravenously” for “by oral gavaging”, “10” for “100”

MDA-MB-361 xenografts = assay: Orthotopic human MDA-MB-361 breast cancer xenograft model; format: in vivo, mouse; settings: trastuzumab and rhuMAb 2C4 10 mg/kg, lapatinib 100 mg/kg twice daily, 2C2-YTE 30 mg/kg
Procedure: as §3, with “5×10^6” for “1×10^7”, “injection.” for “injection. Tumors were allowed to grow up to 200 mm^3 before randomization for efficacy studies.”

| Substance | effect on HRG ligand-dependent signaling (HER3, pHER3, pAKT; in words) [1] | partial regressions [2] | TGI [3] [%] | anti-tumor activity (in words) [4] | anti-tumor efficacy (in words) [5] | anti-tumor efficacy (in words) [6] | anti-tumor efficacy (in words) [7] | anti-tumor efficacy (in words) (HARA-B NSCLC xenografts) | anti-tumor efficacy (in words) (OE-21 xenografts) | ADCC effect (in words) (BT-474 and SkBR3) | anti-tumor efficacy (in words) (BT-474 xenografts) | anti-tumor efficacy (in words) [8] | anti-tumor efficacy (in words) (MDA-MB-361 xenografts) |
| --- | --- | --- | --- | --- | --- | --- | --- | --- | --- | --- | --- | --- | --- |
| cetuximab [reference compound] | no effect | 5/10 | 75.0 | no measurable anti-tumor activity | no efficacy | comparable efficacy | no anti-tumor activity; also recorded: did not respond | no anti-tumor activity; also recorded: did not respond | modest anti-tumor activity | – | – | – | – |
| trastuzumab | – | – | – | – | – | – | – | – | – | significant tumor-killing effects | very active | did not demonstrate efficacy | showed anti-tumor efficacy |
